Test results: ChEMBL document CHEMBL4842326

Target: T1, Histone deacetylase 8 (Homo sapiens, UniProt Q9BY41)
T1 sequence (Q9BY41 whole entry): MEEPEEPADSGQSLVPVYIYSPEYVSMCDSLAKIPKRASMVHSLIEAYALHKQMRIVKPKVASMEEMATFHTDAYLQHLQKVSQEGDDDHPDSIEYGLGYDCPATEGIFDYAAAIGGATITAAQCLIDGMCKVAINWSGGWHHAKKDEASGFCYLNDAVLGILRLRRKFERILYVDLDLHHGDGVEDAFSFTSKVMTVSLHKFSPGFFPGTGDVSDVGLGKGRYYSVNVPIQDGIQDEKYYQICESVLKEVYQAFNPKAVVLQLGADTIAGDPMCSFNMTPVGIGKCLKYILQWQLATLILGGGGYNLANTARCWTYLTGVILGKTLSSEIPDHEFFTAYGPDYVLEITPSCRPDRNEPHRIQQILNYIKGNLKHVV
Experiment: Inhibition of HDAC8 (unknown origin) using Ac-LeuGlyLys(tfa)-AMC as substrate preincubated for 10 mins followed by substrate addition and further incubated for incubated for 1 hrs by fluorescence microtiter plate reader assay

IC50: 1280 nM
SMILES: O=C(CCCCCCC(=O)Nc1ccccc1)NO [VORINOSTAT]
